Cneo AK release: Cryptococcus neoformans lysis via adenylate kinase release | C. neoformans lysis, adenylate kinase release luminescence, 4 h; normalised: neutral wells 0, clomiphene wells 100 | lysis activity, % at 15 µM | actives 0.2% (n = 360,000);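 active = mean lysis activity across replicates of at least 80%, whatever share of replicates individually reach that level; inactive = mean lysis activity below 80%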
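Signal: Adenylate kinase release luminescence | Assay system: Log-phase Cryptococcus neoformans yeast cells | Input: Cells at 5 × 10^6 per mL | Buffer or medium: Fresh YPD growth medium | Compound: Single dose | Schedule: Static 4 h at 37 °C with compound, 1 h detection | Controls: Clomiphene | Read-out: Luminescence rise reflecting yeast cell lysis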
miR122 inh: blocks miR-122 activity in Huh7 sensor cells; actives 0.3% (n = 340,000); activation (reporter increase), % at 12.5 µM; Huh7 miR-122 Renilla luciferase sensor, 48 h; neutral wells = 0, positive control = 100;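 active = mean replicate activation score at least 90 and every replicate individually at or above 90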;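 also: higher luciferase means less miR-122 activity so hits act as miR-122 inhibitors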
UUG fidelity: modulators of yeast start codon fidelity, primary screen, whole organism, S. cerevisiae, single point, plate reader; S. cerevisiae UUG-firefly luciferase reporter, luminescence/redox ratio; activity score, % at 18.7 µM; 0.13% of 350,000 active; AID 602363, 2012;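 active = replicate mean at a twofold rise or more, about +100% in these data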;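 also: firefly luciferase made from a UUG start codon reports start codon fidelity; reporter light over untreated wells divided by growth signal over untreated wells; some hits fall short of that in this replicate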
Statin myotox sup: suppressors of simvastatin-induced myotoxicity in C2C12 myotubes; ATP luminescence, 48 h; scaled: DMSO 0, geranylgeraniol control 100; rescue of ATP level, % at 7.49 µM; actives 0.78% (n = 330,000); AID 602340;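 active = mean ATP rescue above about 67%, or every replicate alone reaching that limit, limit read from the data, passing the limit was not always enough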;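 also: myotubes were challenged with 10 µM simvastatin during compound exposure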
Glyco luc inh: N-linked glycosylation inhibition | actives 0.23% (n = 360,000) | D54 ERlucT glycosylation luciferase reporter, 24 h; percent of 100 nM tunicamycin response | reporter increase, % at 12.5 µM;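 active = mean luciferase reporter signal, scaled so untreated is 0 and the glycosylation-blocking control 100, at or above a set limit in every replicate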;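 also: luciferase carries N-glycosylation sites so blocking glycosylation raises the light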
A number is an active result. Compounds with a hit are over-represented: about 1.2% of the library has one in this group of screens.

`CCCOn1c(OCC(C)C)nc2ccccc2c1=O` gave Cneo AK release inactive, miR122 inh inactive, UUG fidelity inactive, Statin myotox sup inactive and Glyco luc inh inactive.
For O=[N+]([O-])c1ccc(N/N=C/c2cccc(O)c2O)cc1 the results were Cneo AK release inactive, UUG fidelity inactive, Statin myotox sup 92 and Glyco luc inh inactive.
Screening O=[N+]([O-])c1ccc(N/N=C/c2cccc(O)c2)cc1 returned Cneo AK release inactive, UUG fidelity inactive, Statin myotox sup inactive and Glyco luc inh inactive.
For Cc1ccc(-c2nn(-c3ccccc3)cc2CO)cc1 the results were Cneo AK release inactive, miR122 inh inactive, UUG fidelity inactive, Statin myotox sup inactive and Glyco luc inh inactive.
`COc1ccc(-c2nn(-c3ccccc3)cc2CO)cc1` gave Cneo AK release inactive, miR122 inh inactive, UUG fidelity inactive, Statin myotox sup 99 and Glyco luc inh inactive.
For CCC1(C)Cc2ccccc2-c2[nH][nH]c(=O)c21 (stereo not drawn) the results were miR122 inh inactive and Glyco luc inh inactive.
`Nc1ncc(Br)cc1S(=O)(=O)NCCc1ccccc1` gave Cneo AK release inactive, miR122 inh 105, UUG fidelity inactive, Statin myotox sup inactive and Glyco luc inh inactive.
For CCc1ccccc1NC(=O)CCNS(=O)(=O)c1cc(Br)cnc1N the results were Cneo AK release inactive, miR122 inh inactive, UUG fidelity inactive, Statin myotox sup inactive and Glyco luc inh inactive.
COc1ccc(Cl)cc1NS(=O)(=O)c1cc(Br)cnc1N was read as Cneo AK release inactive, miR122 inh inactive, UUG fidelity inactive, Statin myotox sup inactive and Glyco luc inh inactive.
For Cc1cc(C)cc(NS(=O)(=O)c2cc(Br)cnc2N)c1 the results were Cneo AK release inactive, miR122 inh 98, UUG fidelity inactive, Statin myotox sup inactive and Glyco luc inh inactive.
`Cc1ccc(NS(=O)(=O)c2cc(Br)cnc2N)cc1C` gave Cneo AK release inactive, miR122 inh 144, UUG fidelity inactive, Statin myotox sup inactive and Glyco luc inh inactive.
Screening CSc1cccc(NS(=O)(=O)c2cc(Br)cnc2N)c1 returned Cneo AK release inactive, miR122 inh 106, UUG fidelity inactive, Statin myotox sup inactive and Glyco luc inh inactive.
CO[C@@H]1CN(C)C(=O)c2ccc(NC(=O)C3CC3)cc2OC[C@@H](C)N(C(=O)NC(C)C)C[C@H]1C was read as Cneo AK release inactive, UUG fidelity inactive and Statin myotox sup inactive.
Screening Nc1ncc(Br)cc1S(=O)(=O)NC1CCCCC1 returned Cneo AK release inactive, miR122 inh 126, UUG fidelity inactive, Statin myotox sup inactive and Glyco luc inh inactive.
CC1CCCC(NS(=O)(=O)c2cc(Br)cnc2N)C1C (stereo not drawn) was read as Cneo AK release inactive, UUG fidelity inactive, Statin myotox sup inactive and Glyco luc inh inactive.
`COc1ccccc1C#Cc1cnc2c(c1)C(=O)N([C@@H](C)CO)C[C@H](C)[C@H](CN(C)C(C)=O)O2` gave Cneo AK release inactive, miR122 inh inactive, UUG fidelity inactive and Statin myotox sup inactive.
`Nc1nc2c(s1)C(=O)CCC2` gave Cneo AK release inactive, miR122 inh inactive, UUG fidelity inactive, Statin myotox sup 91 and Glyco luc inh inactive.
Screening O=S(=O)(N[C@@H]1CC[C@H](CCn2cc(C3CC3)nn2)O[C@@H]1CO)c1ccc(Cl)cc1 returned Cneo AK release inactive, UUG fidelity inactive and Statin myotox sup inactive.
`CO[C@H]1CN(C)C(=O)c2cc(NC(=O)C3CC3)ccc2OC[C@H](C)N(CC2CCCC2)C[C@H]1C` gave Cneo AK release inactive, miR122 inh inactive, UUG fidelity inactive and Statin myotox sup inactive.
Screening Cc1nnc(SCC(=O)NCc2ccccc2)n1-c1ccccc1 returned Cneo AK release inactive, miR122 inh inactive, UUG fidelity inactive, Statin myotox sup 103 and Glyco luc inh inactive.
Screening Cc1nnc(SCC(=O)NCc2ccco2)n1-c1ccccc1 returned Cneo AK release inactive, miR122 inh inactive, UUG fidelity inactive, Statin myotox sup inactive and Glyco luc inh inactive.
`Cc1ccc(C(=O)Nc2cccc(C(=O)N3CCOCC3)c2)cc1Cl` gave Cneo AK release inactive, miR122 inh inactive and UUG fidelity inactive.
`N#Cc1ccc(C(=O)NCC(c2ccco2)N2CCCC2)cc1` (stereo not drawn) gave Cneo AK release inactive, miR122 inh inactive, UUG fidelity inactive, Statin myotox sup inactive and Glyco luc inh inactive.
